Results reported in ChEMBL document CHEMBL3124938, “Synthesis and biological evaluation of positron emission tomography radiotracers targeting serotonin 4 receptors in brain: [18F]MNI-698 and [18F]MNI-699” (Bioorg Med Chem Lett, 2013).

Sequences of proteins named here, by UniProt entry; tags and fusion partners are left off.
UniProt Q6Q253, whole entry: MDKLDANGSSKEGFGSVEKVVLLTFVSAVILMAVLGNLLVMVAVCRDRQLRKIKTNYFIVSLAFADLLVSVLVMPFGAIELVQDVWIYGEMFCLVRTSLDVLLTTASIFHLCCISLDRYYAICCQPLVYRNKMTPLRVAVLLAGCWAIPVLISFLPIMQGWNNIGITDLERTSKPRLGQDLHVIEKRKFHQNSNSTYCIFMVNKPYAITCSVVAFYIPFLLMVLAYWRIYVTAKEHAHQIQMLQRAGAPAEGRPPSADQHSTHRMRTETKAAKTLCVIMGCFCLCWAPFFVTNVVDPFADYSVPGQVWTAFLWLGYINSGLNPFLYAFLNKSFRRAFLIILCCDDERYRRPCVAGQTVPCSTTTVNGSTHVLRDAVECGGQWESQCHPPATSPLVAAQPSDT

Molecular target: Serotonin 4 (5-HT4) receptor (Sus scrofa, UniProt Q6Q253)
Assay: Binding affinity to 5HT4 receptor in pig striatal membranes
Format: cell membranes, Striatum, Membrane

Kd: 80 pM
Compound: CCCCN1CCC(COC(=O)c2cc(I)c(N)c3c2OCCO3)CC1
